Literature values in US5866346A (priority 1997, dated 1999).

Sequences of proteins named here, by UniProt entry; tags and fusion partners are left off. A change or cut given only in a name is not applied to a line headed by its entry.
UniProt P41146: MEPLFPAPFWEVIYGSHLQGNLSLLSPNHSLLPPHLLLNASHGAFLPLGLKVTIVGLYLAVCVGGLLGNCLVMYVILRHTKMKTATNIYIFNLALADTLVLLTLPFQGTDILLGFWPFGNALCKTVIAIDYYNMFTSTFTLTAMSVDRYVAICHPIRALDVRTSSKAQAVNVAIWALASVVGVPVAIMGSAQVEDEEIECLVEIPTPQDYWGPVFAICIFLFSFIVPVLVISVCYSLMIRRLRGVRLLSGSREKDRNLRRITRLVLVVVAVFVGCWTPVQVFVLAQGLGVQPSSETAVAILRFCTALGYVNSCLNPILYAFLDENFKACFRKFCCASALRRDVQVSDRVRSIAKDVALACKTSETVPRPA

Target: novel opioid receptor-like receptor (XOR1, hORL-I) (Homo sapiens, UniProt P41146)
Conditions: Mollereau et al., FEBS Lett. 341:33-38 (1994); cited from earlier work

Structure (SMILES): CO[C@]12CC[C@@]3(C[C@@H]1C(C)(C)O)[C@H]1Cc4ccc(O)c5c4[C@@]3(CCN1CC1CC1)[C@H]2O5
- effect on adenylyl cyclase in CHO-K1 cells transfected with the receptor clone: antagonized the inhibitory action of etorphine
